{"sequences": {"note": "By UniProt entry, the sequences of proteins in these tests, tags left out.", "UniProt P33533, whole entry": "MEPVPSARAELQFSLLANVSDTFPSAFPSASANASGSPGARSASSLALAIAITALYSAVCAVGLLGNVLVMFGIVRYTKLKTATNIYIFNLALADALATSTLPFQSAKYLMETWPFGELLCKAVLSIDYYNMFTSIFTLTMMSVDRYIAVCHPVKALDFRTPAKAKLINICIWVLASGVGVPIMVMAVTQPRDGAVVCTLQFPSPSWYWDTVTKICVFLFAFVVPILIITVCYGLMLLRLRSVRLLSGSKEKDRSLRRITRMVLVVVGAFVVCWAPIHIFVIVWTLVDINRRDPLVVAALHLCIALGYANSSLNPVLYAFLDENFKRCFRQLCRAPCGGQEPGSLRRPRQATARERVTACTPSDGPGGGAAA", "UniProt P35370, whole entry": "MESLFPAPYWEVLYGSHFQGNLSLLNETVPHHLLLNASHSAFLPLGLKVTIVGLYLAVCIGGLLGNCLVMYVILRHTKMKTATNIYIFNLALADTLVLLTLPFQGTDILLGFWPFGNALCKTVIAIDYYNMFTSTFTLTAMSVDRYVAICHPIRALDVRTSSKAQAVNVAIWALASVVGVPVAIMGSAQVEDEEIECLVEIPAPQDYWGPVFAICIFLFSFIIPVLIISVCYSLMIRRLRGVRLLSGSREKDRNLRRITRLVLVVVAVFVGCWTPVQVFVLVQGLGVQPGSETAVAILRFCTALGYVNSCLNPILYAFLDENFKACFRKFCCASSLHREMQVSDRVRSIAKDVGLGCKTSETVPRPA", "UniProt P34975, whole entry": "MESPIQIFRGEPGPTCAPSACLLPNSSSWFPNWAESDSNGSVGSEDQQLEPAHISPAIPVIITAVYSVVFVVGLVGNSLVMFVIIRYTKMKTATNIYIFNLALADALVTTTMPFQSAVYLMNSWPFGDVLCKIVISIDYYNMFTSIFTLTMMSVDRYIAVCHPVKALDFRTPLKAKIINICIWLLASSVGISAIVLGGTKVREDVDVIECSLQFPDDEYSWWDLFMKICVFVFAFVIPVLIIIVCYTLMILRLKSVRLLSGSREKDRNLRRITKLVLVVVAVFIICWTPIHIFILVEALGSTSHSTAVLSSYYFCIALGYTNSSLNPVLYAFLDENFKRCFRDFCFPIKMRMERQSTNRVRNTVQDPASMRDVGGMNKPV", "UniProt P33535, whole entry": "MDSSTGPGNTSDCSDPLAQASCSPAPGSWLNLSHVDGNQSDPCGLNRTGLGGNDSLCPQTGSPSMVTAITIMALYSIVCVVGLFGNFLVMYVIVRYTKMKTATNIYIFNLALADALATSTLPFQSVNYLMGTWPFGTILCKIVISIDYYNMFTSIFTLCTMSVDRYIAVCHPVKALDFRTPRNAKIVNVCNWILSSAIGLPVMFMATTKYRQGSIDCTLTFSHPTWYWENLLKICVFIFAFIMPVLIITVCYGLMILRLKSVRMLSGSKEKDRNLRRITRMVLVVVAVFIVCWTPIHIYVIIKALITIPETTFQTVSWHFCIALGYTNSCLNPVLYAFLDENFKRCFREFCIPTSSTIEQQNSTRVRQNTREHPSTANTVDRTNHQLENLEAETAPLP"}, "source": "ChEMBL document CHEMBL1133341", "about": "“ORL1 receptor ligands: structure-activity relationships of 8-cycloalkyl-1-phenyl-1,3,8-triaza-spiro[4.5]decan-4-ones” (Bioorg Med Chem Lett, 2000)"}
{"biological_target": "Delta-type opioid receptor (Rattus norvegicus, UniProt P33533)", "test": "Inhibition against binding of radioligand [Ile5,6-3H]-deltorphin to membrane from baby hamster kidney cells infected with forest virus encoding the cDNAs for rat Opioid receptor delta 1", "conditions": "not given", "units": {"Ki": "nM"}}
{"smiles": "O=C1NCN(c2ccccc2)C12CCN(C1CCCCCCCCCCC1)CC2", "Ki": 570}
{"smiles": "O=C1NCN(c2ccccc2)C12CCN(C1CCCCCCCCC1)CC2", "Ki": 46}
{"smiles": "O=C1NCN(c2ccccc2)C12CCN(C1CCCCCCCC1)CC2", "Ki": "> 200"}
{"smiles": "CC(C)[C@H]1CC[C@@H](N2CCC3(CC2)C(=O)NCN3c2ccccc2)CC1", "Ki": 242}
{"smiles": "O=C1NCN(c2ccccc2)C12CCN(C1CCCCCCCCCC1)CC2", "Ki": 15}
{"smiles": "O=C1NCN(c2ccccc2)C12CCN([C@H]1CC[C@@H](C3CCCCC3)CC1)CC2", "Ki": 330}
{"smiles": "O=C1NCN(c2ccccc2)C12CCN(C1CCCCCCC1)CC2", "Ki": "> 200"}
{"smiles": "O=C1NCN(c2ccccc2)C12CCN([C@@H]1Cc3cccc4cccc1c34)CC2", "Ki": 100}
{"smiles": "CC(C)(C)[C@H]1CC[C@@H](N2CCC3(CC2)C(=O)NCN3c2ccccc2)CC1", "Ki": 450}
{"smiles": "CC(C)[C@H]1CC[C@H](N2CCC3(CC2)C(=O)NCN3c2ccccc2)CC1", "Ki": 670}
{"smiles": "CCC[C@H]1CC[C@@H](N2CCC3(CC2)C(=O)NCN3c2ccccc2)CC1", "Ki": "> 540"}
{"biological_target": "T1, Nociceptin receptor (Rattus norvegicus, UniProt P35370)", "test": "Inhibition against binding of radioligand [leucyl-3H]-OFQ to membrane of human embryonic kidney 293 cells overexpressing rat Opioid receptor like 1", "conditions": "hek293", "units": {"Ki": "nM"}}
{"smiles": "O=C1NCN(c2ccccc2)C12CCN(C1CCCCCCCCCCC1)CC2", "Ki": 0.95}
{"smiles": "O=C1NCN(c2ccccc2)C12CCN([C@H]1CC[C@H](C3CCCCC3)CC1)CC2", "Ki": 320}
{"smiles": "O=C1NCN(c2ccccc2)C12CCN(C1CCCCCCCCC1)CC2", "Ki": 0.082}
{"smiles": "O=C1NCN(c2ccccc2)C12CCN(C1CCCCCCCC1)CC2", "Ki": 0.24}
{"smiles": "CC(C)[C@H]1CC[C@@H](N2CCC3(CC2)C(=O)NCN3c2ccccc2)CC1", "Ki": 0.079}
{"smiles": "O=C1NCN(c2ccccc2)C12CCN(C1CCCCCCCCCC1)CC2", "Ki": 0.49}
{"smiles": "O=C1NCN(c2ccccc2)C12CCN([C@H]1CC[C@@H](C3CCCCC3)CC1)CC2", "Ki": 1.5}
{"smiles": "O=C1NCN(c2ccccc2)C12CCN(C1CCCCCCC1)CC2", "Ki": 1.9}
{"smiles": "CC(C)(C)[C@H]1CC[C@@H](N2CCC3(CC2)C(=O)NCN3c2ccccc2)CC1", "Ki": 3.3}
{"smiles": "CC(C)[C@H]1CC[C@H](N2CCC3(CC2)C(=O)NCN3c2ccccc2)CC1", "Ki": 4.6}
{"smiles": "CC(C)(C)[C@H]1CC[C@H](N2CCC3(CC2)C(=O)NCN3c2ccccc2)CC1", "Ki": 12}
{"smiles": "O=C1NCN(c2ccccc2)C12CCN(C1CCCCCCCCCCCCCC1)CC2", "Ki": 600}
{"smiles": "CCC[C@H]1CC[C@H](N2CCC3(CC2)C(=O)NCN3c2ccccc2)CC1", "Ki": 52}
{"smiles": "CCC[C@H]1CC[C@@H](N2CCC3(CC2)C(=O)NCN3c2ccccc2)CC1", "Ki": 2}
{"biological_target": "Kappa-type opioid receptor (Rattus norvegicus, UniProt P34975)", "test": "Inhibition against binding of radioligand [N-allyl-2-3-3H]-naloxone to membrane of baby hamster kidney cells infected with forest virus encoding the cDNAs for rat Opioid receptor kappa 1", "conditions": "not given", "units": {"Ki": "nM"}}
{"smiles": "O=C1NCN(c2ccccc2)C12CCN(C1CCCCCCCCCCC1)CC2", "Ki": 2.9}
{"smiles": "O=C1NCN(c2ccccc2)C12CCN(C1CCCCCCCCC1)CC2", "Ki": 2.1}
{"smiles": "O=C1NCN(c2ccccc2)C12CCN(C1CCCCCCCC1)CC2", "Ki": 3.9}
{"smiles": "CC(C)[C@H]1CC[C@@H](N2CCC3(CC2)C(=O)NCN3c2ccccc2)CC1", "Ki": 26}
{"smiles": "O=C1NCN(c2ccccc2)C12CCN(C1CCCCCCCCCC1)CC2", "Ki": 0.82}
{"smiles": "O=C1NCN(c2ccccc2)C12CCN([C@H]1CC[C@@H](C3CCCCC3)CC1)CC2", "Ki": 29}
{"smiles": "O=C1NCN(c2ccccc2)C12CCN(C1CCCCCCC1)CC2", "Ki": 9.1}
{"smiles": "O=C1NCN(c2ccccc2)C12CCN([C@@H]1Cc3cccc4cccc1c34)CC2", "Ki": 20}
{"smiles": "CC(C)(C)[C@H]1CC[C@@H](N2CCC3(CC2)C(=O)NCN3c2ccccc2)CC1", "Ki": 38}
{"smiles": "CC(C)[C@H]1CC[C@H](N2CCC3(CC2)C(=O)NCN3c2ccccc2)CC1", "Ki": 31}
{"smiles": "CCC[C@H]1CC[C@@H](N2CCC3(CC2)C(=O)NCN3c2ccccc2)CC1", "Ki": 57}
{"biological_target": "Mu-type opioid receptor (Rattus norvegicus, UniProt P33535)", "test": "Inhibition against binding of radioligand [N-allyl-2-3-3H]-naloxone to membrane of baby hamster kidney cells infected with forest virus encoding the cDNAs for rat Opioid receptor mu 1", "conditions": "not given", "units": {"Ki": "nM"}}
{"smiles": "O=C1NCN(c2ccccc2)C12CCN(C1CCCCCCCCCCC1)CC2", "Ki": 0.28}
{"smiles": "O=C1NCN(c2ccccc2)C12CCN(C1CCCCCCCCC1)CC2", "Ki": 0.66}
{"smiles": "O=C1NCN(c2ccccc2)C12CCN(C1CCCCCCCC1)CC2", "Ki": 3.2}
{"smiles": "CC(C)[C@H]1CC[C@@H](N2CCC3(CC2)C(=O)NCN3c2ccccc2)CC1", "Ki": 3.2}
{"smiles": "O=C1NCN(c2ccccc2)C12CCN(C1CCCCCCCCCC1)CC2", "Ki": 0.21}
{"smiles": "O=C1NCN(c2ccccc2)C12CCN([C@H]1CC[C@@H](C3CCCCC3)CC1)CC2", "Ki": 1.5}
{"smiles": "O=C1NCN(c2ccccc2)C12CCN(C1CCCCCCC1)CC2", "Ki": 13}
{"smiles": "O=C1NCN(c2ccccc2)C12CCN([C@@H]1Cc3cccc4cccc1c34)CC2", "Ki": 4}
{"smiles": "CC(C)(C)[C@H]1CC[C@@H](N2CCC3(CC2)C(=O)NCN3c2ccccc2)CC1", "Ki": 6.7}
{"smiles": "CC(C)[C@H]1CC[C@H](N2CCC3(CC2)C(=O)NCN3c2ccccc2)CC1", "Ki": 8.3}
{"smiles": "CCC[C@H]1CC[C@@H](N2CCC3(CC2)C(=O)NCN3c2ccccc2)CC1", "Ki": 7.3}
{"biological_target": "T1, Nociceptin receptor", "test": "pEC50 for its effect on stimulating GTPgammaS binding to membranes of HEK 293 cells overexpressing rat ORL-1 receptor", "conditions": "hek293"}
{"smiles": "O=C1NCN(c2ccccc2)C12CCN(C1CCCCCCCCC1)CC2", "Log EC50": -7.9}
{"smiles": "CC(C)[C@H]1CC[C@@H](N2CCC3(CC2)C(=O)NCN3c2ccccc2)CC1", "Log EC50": -7.42}
